{"source": "patent US6716846B2", "about": "“High affinity ligands for nociceptin receptor ORL-1” (Schering Corporation, priority 1998, dated 2004)", "target": "ORL-1 receptor (Homo sapiens, UniProt P41146)", "experiment": "Nociceptin binding assay ([125I][Tyr14]nociceptin, CHO cell membranes)", "details": "CHO cell membrane preparation expressing the ORL-1 receptor"}
{"compound": "O=C(C1CCCCC1)N1CN(c2ccccc2)C2(CCN(C(c3ccccc3)c3ccccc3)CC2)C1=O", "values": [{"measurement": "Ki", "value": 3, "unit": "µM"}]}
